# From ChEMBL document CHEMBL1142715, “Discovery of new tetracyclic tetrahydrofuran derivatives as potential broad-spectrum psychotropic agents” (J Med Chem, 2005)
# Sequences of proteins named here, by UniProt entry; tags and fusion partners are left off.
# UniProt P28223, whole entry: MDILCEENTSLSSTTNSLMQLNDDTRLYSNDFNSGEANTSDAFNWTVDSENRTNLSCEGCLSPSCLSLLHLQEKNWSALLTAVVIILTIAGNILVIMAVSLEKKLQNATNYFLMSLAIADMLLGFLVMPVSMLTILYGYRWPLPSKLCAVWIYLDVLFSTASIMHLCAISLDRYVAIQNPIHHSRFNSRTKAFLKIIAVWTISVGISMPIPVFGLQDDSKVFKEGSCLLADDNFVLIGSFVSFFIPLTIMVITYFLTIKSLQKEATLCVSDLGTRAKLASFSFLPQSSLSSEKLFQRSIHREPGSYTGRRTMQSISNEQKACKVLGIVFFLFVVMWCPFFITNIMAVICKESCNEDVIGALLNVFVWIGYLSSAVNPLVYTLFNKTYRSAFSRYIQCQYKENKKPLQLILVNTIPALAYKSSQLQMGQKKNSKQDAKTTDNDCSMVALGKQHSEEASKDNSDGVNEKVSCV
# Biological target: 5-hydroxytryptamine receptor 2A (Homo sapiens, UniProt P28223)
row,SMILES,Ki
1,CN(C)C[C@@H]1CC2c3ccccc3Oc3ccc(Br)cc3[C@H]2O1 (stereo partly specified),38 nM
2,CN(C)C[C@H]1CC2c3ccccc3Sc3ccc(F)cc3[C@H]2O1 (stereo in doubt; (-)-8d),0.24 nM
3,CN(C)C[C@H]1CC2c3ccccc3Oc3ccc(Br)cc3[C@H]2O1 (stereo partly specified),15 nM

# The next lines start with the values.
row,Ki,SMILES
1,0.56 nM,CN(C)C[C@H]1CC2c3ccccc3Sc3ccc(F)cc3[C@H]2O1 (stereo in doubt; 8d)
2,1.6 nM,CN(C)C[C@H]1C[C@@H]2c3ccccc3Sc3ccc(F)cc3[C@H]2O1
3,13 nM,CN(C)C[C@@H]1CC2c3ccccc3Sc3ccc(F)cc3[C@H]2O1 (stereo partly specified)
